# In PMC5216056 (2017):
# By UniProt entry, the sequences of proteins in these tests, tags left out. Where a name states a change or a piece, a line headed by the entry shows the natural chain unless it says otherwise.
# UniProt Q9ERZ8, whole entry: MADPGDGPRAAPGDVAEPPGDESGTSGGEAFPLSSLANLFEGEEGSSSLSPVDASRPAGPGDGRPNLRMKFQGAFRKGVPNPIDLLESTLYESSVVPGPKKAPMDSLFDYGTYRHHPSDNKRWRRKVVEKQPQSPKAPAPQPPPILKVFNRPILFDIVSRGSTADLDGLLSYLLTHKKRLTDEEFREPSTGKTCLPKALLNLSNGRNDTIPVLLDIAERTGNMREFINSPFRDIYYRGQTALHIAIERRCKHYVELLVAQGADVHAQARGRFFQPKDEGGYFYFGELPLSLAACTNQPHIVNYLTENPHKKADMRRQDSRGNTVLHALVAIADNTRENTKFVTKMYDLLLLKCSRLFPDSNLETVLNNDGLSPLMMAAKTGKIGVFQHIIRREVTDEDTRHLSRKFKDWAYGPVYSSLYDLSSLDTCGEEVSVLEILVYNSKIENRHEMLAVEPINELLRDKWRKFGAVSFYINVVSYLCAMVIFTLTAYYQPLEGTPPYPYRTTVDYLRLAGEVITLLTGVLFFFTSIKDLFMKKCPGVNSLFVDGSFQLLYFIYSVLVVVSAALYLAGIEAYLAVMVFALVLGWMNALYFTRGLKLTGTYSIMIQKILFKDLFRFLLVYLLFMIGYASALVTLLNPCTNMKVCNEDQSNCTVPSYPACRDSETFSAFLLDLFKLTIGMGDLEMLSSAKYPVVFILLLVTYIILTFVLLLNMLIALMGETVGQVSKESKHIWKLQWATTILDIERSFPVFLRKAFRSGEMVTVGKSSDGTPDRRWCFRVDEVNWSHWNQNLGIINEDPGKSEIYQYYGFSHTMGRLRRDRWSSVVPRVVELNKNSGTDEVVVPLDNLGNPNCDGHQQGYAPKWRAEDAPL
# UniProt P47936: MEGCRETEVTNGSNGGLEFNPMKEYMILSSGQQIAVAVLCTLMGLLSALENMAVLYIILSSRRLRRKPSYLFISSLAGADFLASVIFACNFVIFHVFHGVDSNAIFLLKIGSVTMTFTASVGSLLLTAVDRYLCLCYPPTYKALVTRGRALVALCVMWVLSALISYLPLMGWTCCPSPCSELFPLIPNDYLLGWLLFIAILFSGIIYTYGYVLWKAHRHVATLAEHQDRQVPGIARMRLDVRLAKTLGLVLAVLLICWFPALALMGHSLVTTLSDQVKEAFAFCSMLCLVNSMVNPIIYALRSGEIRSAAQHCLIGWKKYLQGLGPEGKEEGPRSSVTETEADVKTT
# UniProt Q8NER1, whole entry: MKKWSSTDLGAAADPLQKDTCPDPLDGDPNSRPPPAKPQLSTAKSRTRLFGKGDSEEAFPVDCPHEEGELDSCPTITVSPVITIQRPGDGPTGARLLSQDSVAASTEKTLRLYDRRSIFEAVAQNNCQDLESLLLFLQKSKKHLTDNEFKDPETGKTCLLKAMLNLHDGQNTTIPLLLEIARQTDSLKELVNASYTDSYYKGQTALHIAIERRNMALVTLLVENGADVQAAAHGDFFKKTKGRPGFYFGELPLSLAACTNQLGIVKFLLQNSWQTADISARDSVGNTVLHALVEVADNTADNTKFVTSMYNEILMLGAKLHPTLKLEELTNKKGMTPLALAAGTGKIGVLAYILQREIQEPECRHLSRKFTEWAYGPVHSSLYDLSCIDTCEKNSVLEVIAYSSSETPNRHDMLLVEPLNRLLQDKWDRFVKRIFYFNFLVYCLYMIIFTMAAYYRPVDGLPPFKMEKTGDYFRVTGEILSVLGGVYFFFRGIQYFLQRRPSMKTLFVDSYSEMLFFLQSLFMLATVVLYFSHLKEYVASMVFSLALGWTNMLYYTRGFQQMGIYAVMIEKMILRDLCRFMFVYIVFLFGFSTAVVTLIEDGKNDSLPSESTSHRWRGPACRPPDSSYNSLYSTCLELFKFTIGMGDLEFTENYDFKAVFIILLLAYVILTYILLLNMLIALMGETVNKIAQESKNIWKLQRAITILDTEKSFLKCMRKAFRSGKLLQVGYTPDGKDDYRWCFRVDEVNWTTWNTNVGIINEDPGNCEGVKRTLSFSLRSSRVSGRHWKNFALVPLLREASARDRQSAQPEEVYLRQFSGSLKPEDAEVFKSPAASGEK
# UniProt P21554, whole entry: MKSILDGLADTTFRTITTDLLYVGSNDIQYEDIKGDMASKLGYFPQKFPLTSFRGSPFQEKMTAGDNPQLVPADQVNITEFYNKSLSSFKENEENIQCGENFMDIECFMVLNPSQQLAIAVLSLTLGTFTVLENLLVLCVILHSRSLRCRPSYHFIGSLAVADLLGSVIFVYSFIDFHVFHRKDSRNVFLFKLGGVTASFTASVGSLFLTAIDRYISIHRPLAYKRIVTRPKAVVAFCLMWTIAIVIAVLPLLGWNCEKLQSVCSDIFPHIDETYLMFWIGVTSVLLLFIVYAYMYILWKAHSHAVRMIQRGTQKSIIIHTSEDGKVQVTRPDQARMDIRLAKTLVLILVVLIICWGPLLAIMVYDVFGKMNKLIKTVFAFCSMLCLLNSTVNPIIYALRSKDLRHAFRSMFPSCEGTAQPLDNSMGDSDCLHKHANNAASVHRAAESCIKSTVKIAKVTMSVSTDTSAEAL
# UniProt Q6RI86, whole entry: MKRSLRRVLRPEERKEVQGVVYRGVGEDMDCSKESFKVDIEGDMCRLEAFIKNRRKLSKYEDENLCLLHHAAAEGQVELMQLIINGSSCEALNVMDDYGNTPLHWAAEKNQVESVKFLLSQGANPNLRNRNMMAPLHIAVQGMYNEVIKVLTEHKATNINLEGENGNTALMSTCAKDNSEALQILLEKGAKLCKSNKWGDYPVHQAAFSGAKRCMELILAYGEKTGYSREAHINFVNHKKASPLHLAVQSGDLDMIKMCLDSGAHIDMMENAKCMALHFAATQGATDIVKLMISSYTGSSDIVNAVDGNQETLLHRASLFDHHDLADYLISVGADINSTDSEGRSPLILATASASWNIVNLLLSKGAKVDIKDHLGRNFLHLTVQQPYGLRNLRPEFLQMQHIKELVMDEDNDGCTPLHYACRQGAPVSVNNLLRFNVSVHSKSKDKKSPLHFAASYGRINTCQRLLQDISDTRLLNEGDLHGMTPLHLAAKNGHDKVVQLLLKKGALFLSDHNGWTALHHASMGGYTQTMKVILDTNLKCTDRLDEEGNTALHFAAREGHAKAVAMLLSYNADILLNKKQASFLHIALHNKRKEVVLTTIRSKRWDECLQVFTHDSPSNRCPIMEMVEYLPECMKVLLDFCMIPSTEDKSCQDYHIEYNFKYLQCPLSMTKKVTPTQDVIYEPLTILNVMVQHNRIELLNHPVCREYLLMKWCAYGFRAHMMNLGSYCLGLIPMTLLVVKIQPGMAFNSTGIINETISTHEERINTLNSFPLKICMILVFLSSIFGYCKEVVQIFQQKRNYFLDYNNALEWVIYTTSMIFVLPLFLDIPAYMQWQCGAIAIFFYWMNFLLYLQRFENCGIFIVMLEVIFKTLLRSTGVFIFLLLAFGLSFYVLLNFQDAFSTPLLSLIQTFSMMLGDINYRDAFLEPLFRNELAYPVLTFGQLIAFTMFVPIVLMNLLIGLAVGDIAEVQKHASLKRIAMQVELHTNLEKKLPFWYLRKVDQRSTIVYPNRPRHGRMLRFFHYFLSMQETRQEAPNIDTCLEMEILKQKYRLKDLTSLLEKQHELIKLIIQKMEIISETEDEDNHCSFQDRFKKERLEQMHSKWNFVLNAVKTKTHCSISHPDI
# UniProt P08183, whole entry: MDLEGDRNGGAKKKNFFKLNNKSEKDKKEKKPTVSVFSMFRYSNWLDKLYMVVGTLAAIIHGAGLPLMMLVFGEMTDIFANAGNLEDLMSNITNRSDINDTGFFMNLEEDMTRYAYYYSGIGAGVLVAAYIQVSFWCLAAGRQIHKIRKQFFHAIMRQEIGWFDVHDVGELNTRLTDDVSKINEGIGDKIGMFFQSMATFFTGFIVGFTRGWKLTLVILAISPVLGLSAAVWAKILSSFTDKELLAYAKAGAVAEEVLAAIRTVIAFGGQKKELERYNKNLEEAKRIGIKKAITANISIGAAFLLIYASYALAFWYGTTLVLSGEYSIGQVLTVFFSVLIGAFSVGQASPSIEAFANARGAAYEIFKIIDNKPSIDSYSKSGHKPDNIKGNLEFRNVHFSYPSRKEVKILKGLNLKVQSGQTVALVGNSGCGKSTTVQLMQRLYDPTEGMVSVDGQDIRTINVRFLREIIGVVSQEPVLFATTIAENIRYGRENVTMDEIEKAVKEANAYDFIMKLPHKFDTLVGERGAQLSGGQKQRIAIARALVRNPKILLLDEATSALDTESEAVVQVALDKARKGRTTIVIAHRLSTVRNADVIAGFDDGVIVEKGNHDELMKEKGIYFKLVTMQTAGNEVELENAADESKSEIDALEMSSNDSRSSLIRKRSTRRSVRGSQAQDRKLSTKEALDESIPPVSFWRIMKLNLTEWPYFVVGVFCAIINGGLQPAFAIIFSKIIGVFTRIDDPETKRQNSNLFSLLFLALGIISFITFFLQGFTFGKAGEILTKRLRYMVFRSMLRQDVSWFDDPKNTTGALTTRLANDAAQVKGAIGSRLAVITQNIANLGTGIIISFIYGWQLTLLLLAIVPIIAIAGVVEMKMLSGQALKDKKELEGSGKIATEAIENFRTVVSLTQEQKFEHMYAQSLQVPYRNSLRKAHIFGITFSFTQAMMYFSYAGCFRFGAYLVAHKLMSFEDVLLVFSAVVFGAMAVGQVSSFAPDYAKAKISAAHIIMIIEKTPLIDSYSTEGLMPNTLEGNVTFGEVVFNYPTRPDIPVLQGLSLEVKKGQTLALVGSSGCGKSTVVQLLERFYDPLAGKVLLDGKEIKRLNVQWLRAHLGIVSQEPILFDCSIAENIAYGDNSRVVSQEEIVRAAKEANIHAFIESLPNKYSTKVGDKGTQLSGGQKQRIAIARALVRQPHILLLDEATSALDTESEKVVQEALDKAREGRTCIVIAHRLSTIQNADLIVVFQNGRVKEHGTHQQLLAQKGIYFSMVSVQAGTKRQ
# UniProt P21447, whole entry: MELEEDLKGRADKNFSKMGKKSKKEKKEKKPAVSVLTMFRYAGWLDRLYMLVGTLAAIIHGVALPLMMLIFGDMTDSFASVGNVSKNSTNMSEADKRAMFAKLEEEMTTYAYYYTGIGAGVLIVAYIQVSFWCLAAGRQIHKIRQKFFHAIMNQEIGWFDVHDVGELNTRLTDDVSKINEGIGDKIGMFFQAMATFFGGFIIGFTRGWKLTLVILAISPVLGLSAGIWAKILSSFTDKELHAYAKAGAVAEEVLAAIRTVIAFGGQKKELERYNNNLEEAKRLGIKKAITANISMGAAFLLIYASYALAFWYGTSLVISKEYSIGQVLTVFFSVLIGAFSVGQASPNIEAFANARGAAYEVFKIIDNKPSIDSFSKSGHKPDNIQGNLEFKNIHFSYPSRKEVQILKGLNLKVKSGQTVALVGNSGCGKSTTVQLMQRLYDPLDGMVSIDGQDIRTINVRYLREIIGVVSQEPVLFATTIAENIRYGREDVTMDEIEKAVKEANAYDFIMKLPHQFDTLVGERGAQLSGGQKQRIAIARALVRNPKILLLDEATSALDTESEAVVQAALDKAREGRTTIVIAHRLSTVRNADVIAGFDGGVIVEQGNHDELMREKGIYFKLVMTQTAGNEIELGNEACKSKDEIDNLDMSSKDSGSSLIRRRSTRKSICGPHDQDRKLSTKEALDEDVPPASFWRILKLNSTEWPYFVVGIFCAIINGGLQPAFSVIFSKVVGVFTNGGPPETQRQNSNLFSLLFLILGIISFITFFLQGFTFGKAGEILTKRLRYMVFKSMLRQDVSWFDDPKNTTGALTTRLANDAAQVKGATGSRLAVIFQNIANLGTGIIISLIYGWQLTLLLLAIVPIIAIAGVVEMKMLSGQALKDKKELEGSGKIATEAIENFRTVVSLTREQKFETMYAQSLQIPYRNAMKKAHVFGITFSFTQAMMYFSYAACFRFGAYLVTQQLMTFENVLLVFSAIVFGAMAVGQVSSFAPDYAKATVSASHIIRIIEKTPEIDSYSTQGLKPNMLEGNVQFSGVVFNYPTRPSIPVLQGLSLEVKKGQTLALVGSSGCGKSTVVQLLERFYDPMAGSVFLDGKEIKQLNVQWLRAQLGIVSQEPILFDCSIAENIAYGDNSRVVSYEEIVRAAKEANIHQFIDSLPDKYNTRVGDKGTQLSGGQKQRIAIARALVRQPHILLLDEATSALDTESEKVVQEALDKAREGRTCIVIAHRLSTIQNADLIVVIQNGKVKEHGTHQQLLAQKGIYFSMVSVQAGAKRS
# UniProt Q9Y2T6: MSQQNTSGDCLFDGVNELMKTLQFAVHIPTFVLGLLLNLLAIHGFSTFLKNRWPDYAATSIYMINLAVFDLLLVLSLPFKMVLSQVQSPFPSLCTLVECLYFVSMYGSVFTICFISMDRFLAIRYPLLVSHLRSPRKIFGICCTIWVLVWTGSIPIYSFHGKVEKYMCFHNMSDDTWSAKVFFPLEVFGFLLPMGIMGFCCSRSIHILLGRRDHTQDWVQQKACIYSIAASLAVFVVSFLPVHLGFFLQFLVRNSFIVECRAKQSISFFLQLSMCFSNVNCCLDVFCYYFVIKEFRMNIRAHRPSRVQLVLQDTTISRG
# Several values for one entry are separate records, joined by “and”; a condition that tells them apart may be missing. Equal values may be shown once.
# Experiments:
# [1] = target: Rat recombinant TRPV4 (Rattus norvegicus, UniProt Q9ERZ8); format: cell-based; conditions: read-out: TRPV4 IC50 for desensitization; vs 4αPDD 1μM
# [2] = target: T1, Rat recombinant TRPV3 (Rattus norvegicus, UniProt Q4QYD9); format: cell-based; conditions: read-out: TRPV3 IC50 for antagonism or desensitization; vs thymol 100μM
# T1 sequence (Q4QYD9 1-791): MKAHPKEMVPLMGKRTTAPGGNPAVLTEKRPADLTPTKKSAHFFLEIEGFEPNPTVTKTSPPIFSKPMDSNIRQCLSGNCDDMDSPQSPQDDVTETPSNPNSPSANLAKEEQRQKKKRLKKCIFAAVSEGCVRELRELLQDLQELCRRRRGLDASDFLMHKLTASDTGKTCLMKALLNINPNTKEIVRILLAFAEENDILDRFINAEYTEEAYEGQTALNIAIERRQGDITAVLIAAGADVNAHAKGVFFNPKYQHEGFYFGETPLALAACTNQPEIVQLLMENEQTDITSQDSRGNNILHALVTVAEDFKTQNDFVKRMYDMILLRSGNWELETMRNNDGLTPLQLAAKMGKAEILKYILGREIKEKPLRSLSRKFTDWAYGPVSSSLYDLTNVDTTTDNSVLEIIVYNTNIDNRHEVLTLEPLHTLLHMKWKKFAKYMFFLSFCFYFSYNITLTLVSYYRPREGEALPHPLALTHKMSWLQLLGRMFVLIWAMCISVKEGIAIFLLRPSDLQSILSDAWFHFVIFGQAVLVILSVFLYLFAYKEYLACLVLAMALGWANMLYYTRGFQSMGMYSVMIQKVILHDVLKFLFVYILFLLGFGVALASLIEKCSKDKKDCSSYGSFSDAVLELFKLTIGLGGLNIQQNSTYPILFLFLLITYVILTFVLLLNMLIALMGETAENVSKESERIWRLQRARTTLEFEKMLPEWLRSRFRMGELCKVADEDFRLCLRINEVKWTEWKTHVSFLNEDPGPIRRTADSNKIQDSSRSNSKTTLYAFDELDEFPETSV
# [3] = target: mCB2R (Mus musculus, UniProt P47936); format: biochemical; conditions: mouse spleen
# [4] = target: Human recombinant TRPV1 (Homo sapiens, UniProt Q8NER1); format: cell-based; conditions: read-out: TRPV1 IC50 for antagonism or desensitization
# [5] = 1 μM
# [6] = 1 μM; remark: listed apart in the source
# [7] = target: T2, hCB1R (Homo sapiens, UniProt P21554)
# [8] = target: T3, Rat recombinant TRPV2 (Rattus norvegicus, UniProt Q9WUD2); format: cell-based; conditions: read-out: TRPV2 IC50 for antagonism or desensitization; vs LPC 3μM
# T3 sequence (Q9WUD2 1-761): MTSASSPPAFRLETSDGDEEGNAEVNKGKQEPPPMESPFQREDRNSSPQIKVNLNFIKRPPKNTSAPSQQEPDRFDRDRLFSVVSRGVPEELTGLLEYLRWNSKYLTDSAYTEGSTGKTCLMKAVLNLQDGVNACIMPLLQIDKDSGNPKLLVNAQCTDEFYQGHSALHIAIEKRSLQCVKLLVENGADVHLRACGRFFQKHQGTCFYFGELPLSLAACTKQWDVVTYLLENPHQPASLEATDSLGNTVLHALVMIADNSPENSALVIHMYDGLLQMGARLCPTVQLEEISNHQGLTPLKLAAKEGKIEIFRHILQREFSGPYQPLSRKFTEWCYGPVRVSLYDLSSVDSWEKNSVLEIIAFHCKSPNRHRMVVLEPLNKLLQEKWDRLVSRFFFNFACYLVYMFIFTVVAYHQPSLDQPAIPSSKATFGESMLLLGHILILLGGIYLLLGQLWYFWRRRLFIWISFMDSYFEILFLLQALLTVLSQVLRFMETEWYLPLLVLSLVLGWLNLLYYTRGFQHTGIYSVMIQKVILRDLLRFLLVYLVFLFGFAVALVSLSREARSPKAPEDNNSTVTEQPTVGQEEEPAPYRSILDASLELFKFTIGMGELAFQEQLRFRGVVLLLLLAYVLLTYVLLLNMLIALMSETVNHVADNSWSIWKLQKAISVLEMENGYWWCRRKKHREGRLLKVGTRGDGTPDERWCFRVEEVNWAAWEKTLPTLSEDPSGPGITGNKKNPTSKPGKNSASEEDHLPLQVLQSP
# [9] = i.v., mice
# [10] = logD distribution coefficient
# [11] = target: T2, hCB1R; remark: listed apart in the source
# [12] = target: Rat recombinant TRPA1 (Rattus norvegicus, UniProt Q6RI86)
# [13] = target: T2, hCB1R; remark: listed apart in the source
# [14] = target: human P-gp (Homo sapiens, UniProt P08183); conditions: efflux ratio
# [15] = target: T2, hCB1R; remark: listed apart in the source
# [16] = target: T4, mCB1R (Mus musculus, UniProt P47746); format: biochemical; conditions: mouse brain
# [17] = target: T2, hCB1R; remark: listed apart in the source
# [18] = target: Rat recombinant TRPM8 (Rattus norvegicus, UniProt Q8R455); assay: TRP channel [Ca2+]i assay; format: cell-based; conditions: read-out: TRPM8 IC50 for antagonism of icilin; vs icilin […]
# [19] = target: T4, mCB1R; format: binding; conditions: mouse brain membranes
# [20] = target: mouse P-gp (Mus musculus, UniProt P21447); conditions: efflux ratio
# [21] = target: hGPR55 (Homo sapiens, UniProt Q9Y2T6); format: cell-based; conditions: β-arrestin recruitment
substance,measurement,setting,value
SR144528,IC50,[1],> 100 µM
same,IC50,[2],> 100 µM
same,pEC50 ± SEM cAMP mCB2R,[3],8.25 ± 0.29
same,IC50,[4],> 100 µM
same,CL microsomes human,[5],129 µL/min/mg protein
same,CL microsomes mouse,[6],446 µL/min/mg protein
same,pEC50 ± SEM β-AR recruitment hCB1R,[7],4.97 ± 0.13
same,IC50,[8],> 50 µM
same,AUCinf,[9],1440 ng·h/mL
same,AUCinf/dose,[9],1440 kg·ng·h/mL/mg
same,AUClast,[9],1430 ng·h/mL
same,CL,[9],11.5 mL/min/kg
same,T1/2,[9],2.1 h
same,Vss,[9],0.50 L/kg and < 1 L/kg
same,C0,"[9]; 1.0-2.0 mg/kg, extrapolated",15800 ng/mL
same,logD,[10],> 3
same,pEC50 ± SEM cAMP hCB1R,[11],< 5
same,IC50,"[12]; read-out: TRPA1 IC50 for antagonism or desensitization, vs AITC 100μM, 5 min pre-incubation",> 100 µM
same,EC50,[12]; read-out: TRPA1 Potency EC50,8.9 µM
same,pEC50 ± SEM pERK hCB1R,[13],< 4
same,P-gp (ER) human,[14],4.1
same,pEC50 ± SEM GIRK hCB1R,[15],< 5
same,pEC50 ± SEM cAMP mCB1R,[16],5.54 ± 0.16
same,pEC50 ± SEM GTPγS hCB1R,[17],< 5
same,IC50,[18],2.9 ± 1.3 µM
same,pKi ± SEM mCB1R,[19],6.92 ± 0.2
same,P-gp (ER) mouse,[20],5.6
same,Pct acceptor,PAMPA,0%
same,Pct donor,PAMPA,47%
same,Pct membrane,"PAMPA, compound found in membranes",54%
same,Pampa Peff,membrane permeation coefficient,0 cm/s*10-6
same,GPR55 pEC50 (± SEM),[21],< 5
